{"sequences": {"note": "By UniProt entry, the sequences of proteins in these tests, tags left out. Residues count along the entry.", "UniProt P35968, 20-1356": "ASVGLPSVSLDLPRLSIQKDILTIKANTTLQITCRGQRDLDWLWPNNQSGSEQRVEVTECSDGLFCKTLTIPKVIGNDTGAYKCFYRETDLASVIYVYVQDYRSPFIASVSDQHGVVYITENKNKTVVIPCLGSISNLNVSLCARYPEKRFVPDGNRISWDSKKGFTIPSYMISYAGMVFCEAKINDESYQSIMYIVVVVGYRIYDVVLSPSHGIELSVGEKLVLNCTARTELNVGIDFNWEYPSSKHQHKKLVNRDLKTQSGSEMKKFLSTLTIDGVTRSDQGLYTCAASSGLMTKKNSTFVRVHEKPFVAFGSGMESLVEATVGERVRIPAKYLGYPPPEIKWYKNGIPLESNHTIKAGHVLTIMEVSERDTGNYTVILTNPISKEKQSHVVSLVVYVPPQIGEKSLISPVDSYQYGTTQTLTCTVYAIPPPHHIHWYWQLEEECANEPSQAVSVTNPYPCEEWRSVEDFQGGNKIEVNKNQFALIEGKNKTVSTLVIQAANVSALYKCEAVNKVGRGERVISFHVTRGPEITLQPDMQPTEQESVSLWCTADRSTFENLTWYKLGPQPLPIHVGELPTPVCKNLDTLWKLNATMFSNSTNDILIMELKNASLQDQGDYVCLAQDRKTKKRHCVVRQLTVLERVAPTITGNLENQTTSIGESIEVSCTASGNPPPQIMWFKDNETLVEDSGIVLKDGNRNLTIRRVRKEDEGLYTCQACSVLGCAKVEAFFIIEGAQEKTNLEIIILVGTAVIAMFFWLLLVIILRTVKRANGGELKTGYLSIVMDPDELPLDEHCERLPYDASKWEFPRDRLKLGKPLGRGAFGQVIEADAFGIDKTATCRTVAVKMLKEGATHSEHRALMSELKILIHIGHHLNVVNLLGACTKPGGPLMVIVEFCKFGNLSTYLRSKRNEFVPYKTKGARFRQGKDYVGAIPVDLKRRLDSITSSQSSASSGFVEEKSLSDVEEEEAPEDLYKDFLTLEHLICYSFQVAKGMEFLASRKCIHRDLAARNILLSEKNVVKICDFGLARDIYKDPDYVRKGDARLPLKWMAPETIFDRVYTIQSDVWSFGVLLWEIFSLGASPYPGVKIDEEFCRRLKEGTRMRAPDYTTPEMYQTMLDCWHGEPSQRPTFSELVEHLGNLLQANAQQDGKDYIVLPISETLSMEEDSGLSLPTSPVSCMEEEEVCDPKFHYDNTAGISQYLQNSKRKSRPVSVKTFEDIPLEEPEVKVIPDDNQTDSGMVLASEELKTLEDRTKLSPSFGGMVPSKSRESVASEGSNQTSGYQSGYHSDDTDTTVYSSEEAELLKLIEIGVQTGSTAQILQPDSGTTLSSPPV"}, "source": "patent US7052705B2", "about": "“Anti-angiogenic peptides” (Regeneron Pharmaceuticals, Inc., priority 2001, dated 2006)", "key": {"VEGFR-2": {"molecular_target": "T1, VEGFR-2 (Homo sapiens, UniProt P35968)", "T1 construct": "In the COS-1 cells overexpressing the full-length VEGFR-2; expressed in transfected cells; host or cells: COS-1", "type": "binding", "method": "(§1) When co-expressing VEGFR-2 and NP-1, 5 μg of VEGFR-2 cDNA and 2 μg of NP-1 cDNA are used. When the receptors are expressed in isolation, for VEGFR-2, 5 μg of VEGFR-2 cDNA and 2 μg of mock vector cDNA are used.\n(§2) After generation of the liposome/DNA solution, the cells are rinsed one time with 5 ml Optimem I, then replaced with another 5 ml of Optimem I containing the liposome/DNA solution. The cells are incubated for two to four hours at 37° C., 5% CO2, then 5 ml of COS-1 cell growth medium is applied and the transfection is allowed to proceed overnight. The following day, cells are trypsinized (0.2% trypsin, 1 mM EDTA, Gibco-BRL), and cells containing common transfectants are pooled. […] The cells are then used for corresponding VEGFR-2/NP-1 complex formation and peptide blocking studies.\n(§3) Cells are plated the day before experimentation at 200,000 cells per well in twelve well tissue culture plates (VWR) in 1 ml of growth medium specific for each cell type. […]\n(§4) Unbound ligand is then removed by quickly washing three times with 5 ml ice cold BSA-free binding buffer (MEM, Gibco, 25 mM Hepes, Gibco). Cells are lysed by the addition of 250 μl of RIPS Buffer (previously described), and the lysed cells are transferred to 12×75 mm test tubes and counted using a gamma counter. […]"}, "NP-1": {"molecular_target": "NP-1 (Homo sapiens, UniProt O14786)", "type": "binding", "design": "the NP-1 cDNA used for these experiments would only produce the full-length receptor; expressed in transfected cells; host or cells: COS-1", "method": "as §1, §2, §3, §4"}, "VEGFR-2/NP-1": {"test_system": "T2, VEGFR-2/NP-1", "T2 construct": "In the COS-1 cells overexpressing the full-length VEGFR-2; the NP-1 cDNA used for these experiments would only produce the full-length receptor; expressed in transfected cells; host or cells: COS-1", "type": "binding, human", "method": "as §1, §2, §3, §4"}}}
{"substance": "H-RRPKGRAAARREKQRPSDKPRR-OH [AS-2, RRP KGR AM RRE KQR PSD KPR R]", "values": [{"measurement": "Relative Affinity to Lead Peptide (RALP), VEGFR-2", "setting": "VEGFR-2", "result": 10}, {"measurement": "Relative Affinity to Lead Peptide (RALP), NP-1", "setting": "NP-1", "result": 28}, {"measurement": "Relative Affinity to Lead Peptide (RALP), VEGFR-2/NP-1", "setting": "VEGFR-2/NP-1", "result": 9}]}
